Earlier results as cited in patent US9492388B2, “Coated particles for sustained-release pharmaceutical administration” (St. James Associates LLC/Faber Research Series, priority 2002, dated 2016).

Details: in vivo

## procaine penicillin
  period over which therapeutic levels are sustained: 14 to 28 days
